Assay results: ChEMBL document CHEMBL1641500, “Carbonic anhydrase inhibitors. Inhibition studies with anions and sulfonamides of a new cytosolic enzyme from the scleractinian coral Stylophora pistillata” (Bioorg Med Chem Lett, 2011)

Target: Carbonic anhydrase 6 (Homo sapiens, UniProt P23280)

## O=[As](O)(O)c1ccccc1
  Ki: 13.9 nM
